# Measurements taken from publication doi:10.1101/2025.02.07.636106.
# Amino acid sequences for entries named in this document (tags omitted).
# UniProt P60900, whole entry: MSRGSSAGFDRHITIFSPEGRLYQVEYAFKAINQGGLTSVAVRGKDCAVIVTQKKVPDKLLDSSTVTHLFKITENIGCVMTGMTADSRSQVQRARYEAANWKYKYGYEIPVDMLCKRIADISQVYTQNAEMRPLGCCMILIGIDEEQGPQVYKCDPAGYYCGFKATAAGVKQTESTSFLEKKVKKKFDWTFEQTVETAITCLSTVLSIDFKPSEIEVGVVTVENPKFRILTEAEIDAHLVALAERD
# UniProt Q02388, whole entry: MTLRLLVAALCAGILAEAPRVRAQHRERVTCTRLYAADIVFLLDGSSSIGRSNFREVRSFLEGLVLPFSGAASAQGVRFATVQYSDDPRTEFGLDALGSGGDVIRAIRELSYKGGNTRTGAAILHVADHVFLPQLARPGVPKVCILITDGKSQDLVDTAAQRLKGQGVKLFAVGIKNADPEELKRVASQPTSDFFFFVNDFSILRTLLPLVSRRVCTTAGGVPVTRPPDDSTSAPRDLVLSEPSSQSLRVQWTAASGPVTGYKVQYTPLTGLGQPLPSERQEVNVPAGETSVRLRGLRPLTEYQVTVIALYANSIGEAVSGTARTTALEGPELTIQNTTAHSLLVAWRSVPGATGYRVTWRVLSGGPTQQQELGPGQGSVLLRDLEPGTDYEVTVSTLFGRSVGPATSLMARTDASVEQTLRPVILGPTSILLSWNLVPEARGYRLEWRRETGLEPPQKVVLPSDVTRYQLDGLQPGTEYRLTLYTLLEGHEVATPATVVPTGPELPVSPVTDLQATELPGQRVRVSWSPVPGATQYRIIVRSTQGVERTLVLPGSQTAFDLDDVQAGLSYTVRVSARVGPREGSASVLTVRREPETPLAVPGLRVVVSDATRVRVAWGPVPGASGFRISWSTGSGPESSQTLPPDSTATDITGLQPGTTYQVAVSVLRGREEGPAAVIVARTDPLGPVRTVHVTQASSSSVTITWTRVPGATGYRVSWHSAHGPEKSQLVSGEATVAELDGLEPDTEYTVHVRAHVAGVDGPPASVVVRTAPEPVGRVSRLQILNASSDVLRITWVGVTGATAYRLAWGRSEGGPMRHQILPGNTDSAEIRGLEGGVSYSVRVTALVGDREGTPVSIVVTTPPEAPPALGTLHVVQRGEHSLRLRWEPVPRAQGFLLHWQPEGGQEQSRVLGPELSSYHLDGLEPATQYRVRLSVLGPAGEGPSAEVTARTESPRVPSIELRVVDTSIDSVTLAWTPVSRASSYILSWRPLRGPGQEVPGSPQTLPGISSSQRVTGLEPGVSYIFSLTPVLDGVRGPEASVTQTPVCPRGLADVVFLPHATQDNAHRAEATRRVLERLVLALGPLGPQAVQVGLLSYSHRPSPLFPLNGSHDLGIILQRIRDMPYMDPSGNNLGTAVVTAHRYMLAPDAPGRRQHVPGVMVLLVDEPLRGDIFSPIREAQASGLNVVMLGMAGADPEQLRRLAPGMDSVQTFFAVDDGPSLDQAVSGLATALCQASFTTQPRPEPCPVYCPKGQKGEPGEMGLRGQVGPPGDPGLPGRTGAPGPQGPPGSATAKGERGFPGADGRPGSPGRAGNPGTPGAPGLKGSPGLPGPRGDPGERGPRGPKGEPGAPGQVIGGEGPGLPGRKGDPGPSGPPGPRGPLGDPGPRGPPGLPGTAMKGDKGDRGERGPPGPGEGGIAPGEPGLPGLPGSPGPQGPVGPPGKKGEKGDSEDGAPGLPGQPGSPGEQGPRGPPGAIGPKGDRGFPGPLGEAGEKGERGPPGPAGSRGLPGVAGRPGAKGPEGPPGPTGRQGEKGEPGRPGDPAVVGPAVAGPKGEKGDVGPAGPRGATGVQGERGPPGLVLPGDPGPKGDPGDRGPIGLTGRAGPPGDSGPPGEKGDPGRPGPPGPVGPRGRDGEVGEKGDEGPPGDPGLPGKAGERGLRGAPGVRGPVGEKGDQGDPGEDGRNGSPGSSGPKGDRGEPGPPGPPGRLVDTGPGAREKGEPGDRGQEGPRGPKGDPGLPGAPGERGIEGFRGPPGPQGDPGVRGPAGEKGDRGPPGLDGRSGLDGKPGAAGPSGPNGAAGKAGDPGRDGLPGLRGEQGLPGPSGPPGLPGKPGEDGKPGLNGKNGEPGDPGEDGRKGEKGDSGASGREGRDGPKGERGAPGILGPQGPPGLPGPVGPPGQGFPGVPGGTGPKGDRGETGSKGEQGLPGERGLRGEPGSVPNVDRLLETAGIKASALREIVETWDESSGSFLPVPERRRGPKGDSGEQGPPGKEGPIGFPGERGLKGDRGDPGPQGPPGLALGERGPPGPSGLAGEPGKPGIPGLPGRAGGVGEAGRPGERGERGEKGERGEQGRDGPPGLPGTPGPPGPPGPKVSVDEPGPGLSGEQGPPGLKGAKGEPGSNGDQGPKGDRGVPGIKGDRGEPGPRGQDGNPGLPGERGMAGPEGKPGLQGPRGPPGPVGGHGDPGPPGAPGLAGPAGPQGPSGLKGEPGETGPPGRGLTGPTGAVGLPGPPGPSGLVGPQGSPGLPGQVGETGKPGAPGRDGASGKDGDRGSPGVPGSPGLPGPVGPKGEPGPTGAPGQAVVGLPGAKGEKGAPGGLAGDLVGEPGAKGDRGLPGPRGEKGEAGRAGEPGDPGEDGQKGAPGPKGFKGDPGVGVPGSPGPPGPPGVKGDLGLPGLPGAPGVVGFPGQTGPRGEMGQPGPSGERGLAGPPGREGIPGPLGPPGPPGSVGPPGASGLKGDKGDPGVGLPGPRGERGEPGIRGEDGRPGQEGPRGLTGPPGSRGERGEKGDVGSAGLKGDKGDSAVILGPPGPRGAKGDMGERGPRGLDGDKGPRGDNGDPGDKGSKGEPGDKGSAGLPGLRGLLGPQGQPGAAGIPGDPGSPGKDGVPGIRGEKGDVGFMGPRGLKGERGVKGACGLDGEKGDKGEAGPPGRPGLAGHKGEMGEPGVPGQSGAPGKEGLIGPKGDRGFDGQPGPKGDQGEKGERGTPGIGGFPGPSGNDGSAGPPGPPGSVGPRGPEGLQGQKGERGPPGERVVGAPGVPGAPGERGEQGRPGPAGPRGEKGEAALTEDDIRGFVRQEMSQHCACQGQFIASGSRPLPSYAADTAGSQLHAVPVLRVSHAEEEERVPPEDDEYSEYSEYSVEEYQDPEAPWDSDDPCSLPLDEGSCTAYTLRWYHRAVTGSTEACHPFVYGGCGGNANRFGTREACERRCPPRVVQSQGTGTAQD
# UniProt P26368, whole entry: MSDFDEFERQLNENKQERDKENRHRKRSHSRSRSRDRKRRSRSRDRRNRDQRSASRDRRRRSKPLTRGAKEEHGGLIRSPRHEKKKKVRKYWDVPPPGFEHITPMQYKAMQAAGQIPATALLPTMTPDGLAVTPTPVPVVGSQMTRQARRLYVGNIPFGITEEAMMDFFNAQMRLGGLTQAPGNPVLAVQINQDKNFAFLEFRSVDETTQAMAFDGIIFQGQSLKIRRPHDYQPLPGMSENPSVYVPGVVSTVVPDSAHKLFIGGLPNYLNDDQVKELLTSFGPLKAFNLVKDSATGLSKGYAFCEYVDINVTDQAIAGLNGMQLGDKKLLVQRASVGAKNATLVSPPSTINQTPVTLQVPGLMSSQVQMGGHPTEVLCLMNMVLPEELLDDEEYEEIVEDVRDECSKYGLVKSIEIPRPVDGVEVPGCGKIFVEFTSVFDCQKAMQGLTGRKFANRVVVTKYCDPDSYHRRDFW
# This is one part of the list.
# Key:
# [1] = biological target: Proteasome subunit alpha type-6 (UniProt P60900); assay: co-fractionation; co-fractionation
# [2] = biological target: Collagen alpha-1(VII) chain (UniProt Q02388); assay: cross-link between two proteins; cross-linking mass spectrometry
# [3] = biological target: Splicing factor U2AF 65 kDa subunit (UniProt P26368); assay: as above
substance,measurement,setting,value
"Proteasome subunit beta type-5, P28074",listed as a hit,[1],yes
"Kininogen-1, P01042",listed as a hit,[2],yes
"Splicing factor 3B subunit 1, O75533",listed as a hit,[3],yes
